From patent EP0338372A2, “Solubilized pro-drugs” (AMERICAN CYANAMID COMPANY, priority 1988, dated 1989) come the findings set out here.

The test system of one data set is melanotic melanoma B16. Put plainly: Melanotic Melanoma B16 test. In kind it is in vivo, BDF1 mice.
A further data set deals with L1210 leukemia cells. Nature of the data set: Lymphocytic Leukemia L1210 test. The data set is classed as in vivo, BDF1 mice.
Data set [1] is described as follows: hydrolysis / stability in water. The note with it: compared with in vivo hydrolysis.
A short description of data set [2]: in vivo hydrolysis of the pro-drug in the rat.
A short description of data set [3]: rat tail vein model for phlebitis reaction near the site of injection.
The test system of data set [4] is lymphocytic leukemia P388. Nature of the data set: Lymphocytic leukemia P388 test. The data set is classed as in vivo, BDF1 mice.
Where [5] appears, read: Dose 1.56 mg/kg intraperitoneally on days 1, 5 and 9.
Where [6] appears, read: Dose 6.25 mg/kg intraperitoneally on days 1, 5 and 9.
[7] abbreviates: Dose 25 mg/kg intraperitoneally on days 1, 5 and 9.
The mark [8] stands for this setting: Dose 0.78 mg/kg intraperitoneally on days 1, 5 and 9.
Where [9] appears, read: Dose 3.12 mg/kg intraperitoneally on days 1, 5 and 9.
Where [10] appears, read: Dose 12.5 mg/kg intraperitoneally on days 1, 5 and 9.
Setting [11] is: Dose 100 mg/kg intraperitoneally on days 1, 5 and 9.
Setting [12] is: Dose 50 mg/kg intraperitoneally on days 1, 5 and 9.
Setting [13] is: Dose 200 mg/kg intraperitoneally on days 1, 5 and 9.

Consider `O=P(O)(O)N1CCN=C1NN=Cc1c2ccccc2c(C=NNC2=NCCN2P(=O)(O)O)c2ccccc12`, for which the “Median Survival” value came to 29 days in the data set with melanotic melanoma B16 (setting [5]); 35.5 days in the data set with melanotic melanoma B16 (setting [6]); 37.5 days with melanotic melanoma B16 (setting [7]); 10.7 days in the data set on L1210 leukemia cells (setting [8]); 11.5 days with L1210 leukemia cells (setting [5]); 12.2 days in the data set with L1210 leukemia cells (setting [9]). Moreover, the “Median Survival” value in the data set with L1210 leukemia cells (setting [6]) came to 13.2 days; with L1210 leukemia cells (setting [10]), 13.3 days; in the data set with L1210 leukemia cells (setting [7]), 17 days. Also, the “T/C x 100 %” value amounted to 126% in the data set with melanotic melanoma B16 (setting [5]); 154% in the data set with melanotic melanoma B16 (setting [6]); 163% in the data set with melanotic melanoma B16 (setting [7]); 126% in the data set with L1210 leukemia cells (setting [8]); 135% with L1210 leukemia cells (setting [5]); 144% in the data set on L1210 leukemia cells (setting [9]). Further, the “T/C x 100 %” value in the data set on L1210 leukemia cells (setting [6]) is recorded as 155%; in the data set with L1210 leukemia cells (setting [10]) it was 156%; in the data set on L1210 leukemia cells (setting [7]) it was 200%. For the same molecule, the stability in water result in data set [1] is “much more stable in water”. In data set [2], the “in vivo hydrolysis of the pro-drug” value is given as “hydrolyzes rapidly to an intermediate form, the monophosphoramidic acid”. In data set [3] (25 mg/kg intravenously, observations at 1, 5 and 9 days following the injection), the “phlebitis reaction near the site of injection” value is “No evidence of phlebitis”.
Consider `O=P(O)(O)N1CCN=C1NN=Cc1c2ccccc2c(C=NNC2=NCCN2)c2ccccc12`, for which the “in vivo hydrolysis of the pro-drug” value in data set [2] is on record as “slowly hydrolyzes further to bisantrene”. Moreover, the “precipitation in a rat tail-vein model” value in data set [3] (rat, in vivo) was “no precipitation”.
Take `CCOP(=O)(OCC)N1CCN=C1NN=Cc1c2ccccc2c(C=NNC2=NCCN2P(=O)(OCC)OCC)c2ccccc12`: in data set [4] (setting [11]), the “Median Survival” value was 12 days and the “T/C x 100 %” value was 120%.
For `O=P(Oc1ccccc1)(Oc1ccccc1)N1CCN=C1NN=Cc1c2ccccc2c(C=NNC2=NCCN2P(=O)(Oc2ccccc2)Oc2ccccc2)c2ccccc12`, the “Median Survival” value in data set [4] (setting [12]) was 13 days; in data set [4] (setting [11]) it was 15.5 days; in data set [4] (setting [13]) it was 16 days. For the same molecule, the figures for the “T/C x 100 %” value in data set [4] (setting [12]), in data set [4] (setting [11]) and in data set [4] (setting [13]) were 130%, 155% and 160%, respectively.
